Experimental data taken from US4789667A, “External pharmaceutical composition and methods of use” (priority 1984, dated 1988).

Assay: Drug diffusion through egg shell membrane in diffusion cell with dodecyl L-pyroglutamate
Conditions: control without enhancer = 100; drug 0.05%, dodecyl L-pyroglutamate 1.0% in donor side, 37° C

O=[N+]([O-])O[C@H]1CO[C@H]2[C@@H]1OC[C@H]2O[N+](=O)[O-]
Relative amount of permeation after 30 minutes: 119
